In this data set the test system is Liver microsomes. The experiment in a line: Half life in human liver microsomes after 90 mins by LC/MS analysis. The class given is ADME, Microsome. To be noted: 1.5 h. A general note: Microsomes from liver hold many membrane-bound enzymes, among them those of drug oxidation.

Molecules are shown by their SMILES.

In turn, `Cc1ccc(S(=O)(=O)N2CCC(C(=O)NC3CCCCCC3)CC2)c(C)c1` returned a t1/2 of 5.5 min.
